Reference: patent US3984481A, “Bis-2-substituted-thiovinyl sulfones” (Chevron Research Company, priority 1976, dated 1976)

Key:
Experiment in all cases: Algae control (aquatic weed control) test
Type in all cases: in vivo
Conditions in all cases: 2 ppm, 20°C, 7 to 10 days, 0 no effectiveness, 100 complete effectiveness
Spirolina = test system: Spirolina
Lemna = test system: Lemna
Elodea = test system: Elodea

Compound: O=S(=O)(C(Cl)CSc1ccc(Cl)cc1)C(Cl)CSc1ccc(Cl)cc1 (stereo not drawn)
- Percent Aquatic Weed Control (Spirolina): 90%
- Percent Aquatic Weed Control (Lemna): 22%
- Percent Aquatic Weed Control (Elodea): 22%
